Values quoted from earlier work in patent publication US20230301973A1, “TREATMENT OF DIFFUSE INTRINSIC PONTINE GLIOMA” (priority 2016, published 2023).

Sequences of proteins named here, by UniProt entry; tags and fusion partners are left off. A change or cut given only in a name is not applied to a line headed by its entry.
UniProt Q14680: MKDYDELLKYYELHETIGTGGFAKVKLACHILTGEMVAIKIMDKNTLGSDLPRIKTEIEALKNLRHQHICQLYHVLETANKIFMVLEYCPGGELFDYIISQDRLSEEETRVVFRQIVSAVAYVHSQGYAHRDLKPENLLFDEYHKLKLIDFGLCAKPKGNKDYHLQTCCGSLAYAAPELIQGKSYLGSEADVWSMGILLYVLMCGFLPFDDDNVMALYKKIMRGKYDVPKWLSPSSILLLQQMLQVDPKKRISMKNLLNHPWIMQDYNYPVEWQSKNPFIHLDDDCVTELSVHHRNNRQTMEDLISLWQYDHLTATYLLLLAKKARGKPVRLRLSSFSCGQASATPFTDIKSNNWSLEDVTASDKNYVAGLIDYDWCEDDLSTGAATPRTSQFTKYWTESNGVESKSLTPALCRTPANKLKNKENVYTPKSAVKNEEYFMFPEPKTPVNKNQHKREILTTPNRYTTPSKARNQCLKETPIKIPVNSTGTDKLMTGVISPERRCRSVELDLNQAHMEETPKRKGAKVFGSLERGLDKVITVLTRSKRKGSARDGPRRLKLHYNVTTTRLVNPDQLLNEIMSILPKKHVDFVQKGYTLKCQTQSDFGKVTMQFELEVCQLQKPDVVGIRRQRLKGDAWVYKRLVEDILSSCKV

Experiments:
[1] = clinical; result in words; cited from earlier work
[2] = target: MELK (Homo sapiens, UniProt Q14680); details: cited from earlier work

Compound | MTD [1] | IC50 [2] [nM]
Cetuximab | Not reached | –
CC(=O)c1cnc2ccc(-c3cc(Cl)c(O)c(Cl)c3)nc2c1NC1CCC(CN(C)C)CC1 (centres unmarked) [OTS167, 1-[6-(3,5-Dichloro-4-hydroxyphenyl)-4-({4-[(dimethylamino)methyl]cyclohexyl}amino)-1,5-naphthyridin-3-yl]ethanone] | – | 0.41
